# Earlier results as cited in patent publication US20110092532A1 (priority 2009, published 2011).
# Where two headings read alike, the source gives them in different places.
# Tested on: Mouse
compound,measurement,setting,value
CN1CCc2cccc3c2[C@H]1Cc1ccc(O)c(O)c1-3 [apomorphine],"Toxicity, LD50",Intra-peritoneal,160 mg/kg
same,"Toxicity, LD50",Intra-venous,56 mg/kg
same,"Toxicity, LD50",Oral,300 mg/kg
